Data as given in PMC8602566 (Frontiers in Oncology, 2021).

Target: T1, HDAC10 (Homo sapiens, UniProt Q969S8)
T1 sequence (Q969S8 1-669): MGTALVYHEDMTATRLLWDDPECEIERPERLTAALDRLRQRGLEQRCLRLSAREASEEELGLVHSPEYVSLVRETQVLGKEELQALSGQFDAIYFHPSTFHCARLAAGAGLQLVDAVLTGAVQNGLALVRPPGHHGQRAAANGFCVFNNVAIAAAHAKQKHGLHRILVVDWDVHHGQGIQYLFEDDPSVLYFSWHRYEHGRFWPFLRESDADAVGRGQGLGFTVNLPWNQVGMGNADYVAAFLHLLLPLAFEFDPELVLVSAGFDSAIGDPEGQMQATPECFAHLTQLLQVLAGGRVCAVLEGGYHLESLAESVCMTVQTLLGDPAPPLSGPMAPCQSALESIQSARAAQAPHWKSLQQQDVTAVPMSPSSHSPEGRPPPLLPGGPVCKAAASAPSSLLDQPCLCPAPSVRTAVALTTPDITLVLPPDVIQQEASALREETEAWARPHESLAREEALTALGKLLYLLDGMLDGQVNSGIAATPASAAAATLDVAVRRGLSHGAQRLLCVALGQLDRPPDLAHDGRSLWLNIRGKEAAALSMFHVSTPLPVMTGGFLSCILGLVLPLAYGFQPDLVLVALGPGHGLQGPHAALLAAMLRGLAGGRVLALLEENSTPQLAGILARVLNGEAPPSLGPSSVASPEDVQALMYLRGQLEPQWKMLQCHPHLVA
Test: HDACs inhibition assay, HDAC10

Molecule `O=C(CCCCCCC(=O)Nc1ccccc1)NO` [Vorinostat, suberoylanilide hydroxamic acid, reference compound] has an IC50 of 760 nM.
